Tested on: T1, chondroitin 4-O-sulfotransferase (C4ST)
T1 construct: gene Chst11; recombinant
Assay: sulfotransferase kinetics, HPLC-MS
Assay type: biochemical
Text: sulfotransferase kinetics, HPLC-MS on chondroitin 4-O-sulfotransferase (C4ST)

Nc1ncnc2c1ncn2[C@@H]1O[C@H](COP(=O)(O)OS(=O)(=O)O)[C@@H](O)[C@H]1O [APS]
Km: 2650 ± 520 µM

From PMC10638397, “Engineering sulfonate group donor regeneration systems to boost biosynthesis of sulfated compounds” (Nature Communications, 2023)
